## Binding of CDR-mutated scFvs to a peptide of the spike HR2 region

Values reported by Engelhart et al. 2022, doi:10.1038/s41597-022-01779-4 (FLAb copy).

Antigen: PDVDLGDISGINAS, a 14-residue peptide of the SARS-CoV-2 spike HR2 region.

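The parent was found by panning a naive human phage display library on the peptide. In library AAYL52, one, two or three CDR residues were substituted; doubles and triples were drawn at random. The assay is AlphaSeq: two haploid yeast populations carry antibody and antigen on their surface. The frequency of each diploid, read from paired DNA barcodes, reflects how well the two displayed proteins bind. A regression on co-assayed BCL2-family reference pairs converts the normalised counts of each replicate to an apparent Kd. Each pool was mated in three replicate cultures.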

Parent scFv Ab-95: VH joined to VL by the linker GGGGSGGGGSGGGGS. Changes lie in the light chain CDRs alone.
VH: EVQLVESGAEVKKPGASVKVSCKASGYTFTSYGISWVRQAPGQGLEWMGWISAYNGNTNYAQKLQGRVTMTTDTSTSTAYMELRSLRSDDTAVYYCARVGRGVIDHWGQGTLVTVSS
VL: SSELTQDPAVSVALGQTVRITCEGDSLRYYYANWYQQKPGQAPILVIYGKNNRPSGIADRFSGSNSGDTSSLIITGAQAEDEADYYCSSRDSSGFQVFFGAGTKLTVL

Positions count from residue 1 of the parent VL; Y29C puts C in place of Y.
Numbers give log10(Kd / nM), so 0 is 1 nM and 3 is 1 µM. Smaller is tighter.
Where no diploid with the target was found in that replicate, the entry reads "nd": below detection, most likely a poor binder, though not proof of it.
Nonspecific signal, from three strains lacking the peptide, appeared in 28% of pairings of library AAYL52, centred on 3.91 (5% of these signals below 2.90); values are not corrected for it. Also given: how often the same scFv was detected with the empty control strains, with their mean in brackets.

| changes | log10 Kd, replicates | empty controls |
|---|---|---|
| Y29C G49S F95E | 4.10 / 3.66 / nd | 6/9 (4.11) |
| S26D D91M V97A | 2.33 / 2.90 / 2.72 | 6/9 (3.88) |
| G49Q N52K R53Q | 4.08 / 5.68 / 3.91 | 1/9 (5.53) |
| G49L Q96D F98G | nd / nd / nd | 0/9 |
| Y31C P54C S89W | 2.98 / 3.90 / 3.30 | 4/9 (3.82) |
| R90C F95H F98S | 3.71 / nd / nd | 2/9 (3.91) |
| D25H S93V F95N | 3.14 / 2.66 / 3.48 | 1/9 (3.94) |
| N33S K50P R90Q | nd / 4.17 / 3.04 | 2/9 (3.57) |
| Y31A G94R Q96D | nd / nd / nd | 1/9 (3.07) |
| E23C R28W A32W | nd / nd / nd | 0/9 |
| L27W S88T | 3.50 / 3.52 / nd | 2/9 (4.81) |
| S55T D91Q G94V | nd / 4.35 / 2.66 | 2/9 (3.15) |
| E23K N52W F98I | 5.20 / 2.23 / 3.13 | 3/9 (3.66) |
| N33E K50C G94E | 3.86 / 2.26 / 2.32 | 6/9 (4.08) |
| G49K K50I S88P | 4.57 / nd / 4.13 | 1/9 (3.87) |
| E23Y R90D F98P | 3.48 / 3.19 / 2.76 | 2/9 (3.52) |
| Y31T P54A | 1.73 / 1.63 / 2.01 | 3/9 (4.65) |
| A32K S89R F98V | 4.91 / nd / nd | 1/9 (5.09) |
| L27R N52K S88A | 3.91 / 3.61 / nd | 1/9 (4.79) |
| L27M S92N V97P | 3.59 / 3.18 / 3.93 | 4/9 (4.04) |
| N33K R53D V97F | nd / 4.20 / nd | 2/9 (4.87) |
| R28Q N51A S89H | nd / nd / 3.81 | 2/9 (3.64) |
| E23G S89N V97C | nd / 3.45 / nd | 2/9 (3.65) |
| L27E Y29D N51S | 2.95 / 4.48 / 2.83 | 2/9 (3.42) |
| E23R R53I D91W | 1.88 / 2.60 / 2.56 | 1/9 (4.00) |
| Y30I A32H G49A | nd / 5.17 / nd | 2/9 (3.43) |
| A32F S55Y F95L | nd / nd / nd | 4/9 (4.15) |
| R28G F95R F98L | 2.70 / 2.49 / 2.16 | 2/9 (4.34) |
| G24A Y29L N52I | 3.84 / 4.05 / 4.37 | 3/9 (3.99) |
| G24D G49K P54I | 4.21 / 4.06 / nd | 0/9 |
| Y31I K50H N51D | 3.64 / 2.79 / 2.70 | 6/9 (3.88) |
| Y31K A32K N51L | nd / 4.55 / nd | 1/9 (4.83) |
| S89C S93V | 3.19 / 2.97 / 3.10 | 5/9 (4.46) |
| D25N R28M S88M | 1.99 / 2.11 / 1.48 | 3/9 (3.95) |
| E23W S26W N52T | 3.00 / 3.58 / 3.75 | 5/9 (4.05) |
| S55G V97M F98D | 2.96 / 2.55 / nd | 2/9 (3.59) |
| G49L N52C F95D | nd / nd / nd | 0/9 |
| G24Y Y29R S89R | 3.88 / 4.00 / 3.91 | 5/9 (3.65) |
| N52I F95M F98W | 2.55 / 2.44 / 2.03 | 0/9 |
| K50P S88G F95A | 2.49 / 2.30 / 2.69 | 0/9 |

Extract of 6 entries:

changes,"log10 Kd, replicates",empty controls
D25H S93V F95N,3.14 / 2.66 / 3.48,1/9 (3.94)
E23R R53I D91W,1.88 / 2.60 / 2.56,1/9 (4.00)
K50P S88G F95A,2.49 / 2.30 / 2.69,0/9
G24A Y29L N52I,3.84 / 4.05 / 4.37,3/9 (3.99)
N52I F95M F98W,2.55 / 2.44 / 2.03,0/9
Y29C G49S F95E,4.10 / 3.66 / nd,6/9 (4.11)

For reference, the parent read 2.31 as the reference entry and 2.25 as a member of this library.